For assay [1], the target named is Rat EphA2 (ligand binding), C-terminal polyHis (Rat). Kind of assay: FP direct binding, selectivity. The protocol: (§1) Peptides with a fluorescent tag (either fluorescein, SIGMA or Alexa Fluor488™, Fisher Scientific) were diluted to 2.5 nM in PBS with 0.01% tween 20 or 50 mM HEPES with 100 mM NaCl and 0.01% tween pH 7.4 (both referred to as assay buffer). This was combined with a titration of protein in the same assay buffer as the peptide to give 1 nM peptide in a total volume of 25 μL in a black walled and bottomed low bind low volume 384 well plates, typically 5 μL assay buffer, 10 μL protein (Table 1) then 10 μL fluorescent peptide. […] The gain used for analysis was determined for each tracer at the end of the 60 minutes where there was no protein in the well. […] “Lig” was a defined value of the concentration of tracer used.

Amino acid sequences for entries named in this document (tags omitted). Residues count along the entry.
UniProt Q03145, 26-538: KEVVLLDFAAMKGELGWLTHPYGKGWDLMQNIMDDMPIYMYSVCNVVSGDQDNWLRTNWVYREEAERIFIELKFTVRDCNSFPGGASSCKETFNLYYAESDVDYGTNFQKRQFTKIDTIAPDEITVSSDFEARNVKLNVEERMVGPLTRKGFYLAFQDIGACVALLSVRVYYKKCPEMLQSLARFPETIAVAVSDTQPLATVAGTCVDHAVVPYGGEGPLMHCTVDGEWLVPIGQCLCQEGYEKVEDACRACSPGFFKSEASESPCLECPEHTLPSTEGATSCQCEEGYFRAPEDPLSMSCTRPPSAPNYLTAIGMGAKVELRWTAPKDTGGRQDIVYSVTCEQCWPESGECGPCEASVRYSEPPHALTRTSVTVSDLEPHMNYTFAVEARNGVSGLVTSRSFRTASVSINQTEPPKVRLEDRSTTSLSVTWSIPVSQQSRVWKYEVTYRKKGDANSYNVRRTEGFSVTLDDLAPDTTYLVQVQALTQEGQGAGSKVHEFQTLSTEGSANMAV

Another assay concerns the target T1, Mouse EphA2 (Ecto) (Mouse, UniProt Q03145 26-538).
T1 construct: extracellular domain
Kind of assay: FP direct binding, selectivity. The protocol:
as §1

In US20260124312A1 (Bicycle, published 2026) one finds Kd data, which are given here for two molecules.

B1: Bicycle Compound 7 (peptide)
peptide: ACYVGKECAYMNVCA
modifications: C-terminal Sar6-K(Fl); three Cys bound to TATA
Consider B1, for which the dissociation constant (Kd) came out at 0.253 µM in assay [1] and 0.216 µM with Mouse EphA2 (Ecto).

B2: Bicycle Compound 2 (peptide)
peptide: ACVPDRRCAYMNVCA
modifications: C-terminal Sar6-K(Fl); three Cys bound to TATA
In turn, B2 registered a dissociation constant Kd in assay [1] of 0.21 µM.
